Experimental data taken from patent publication US20240390315A1, “NUTRITIONAL COMPOSITIONS” (MITOCHOLINE Ltd, priority 2021, published 2024).

Substance: dicholine succinate [DiSu]
- absorption kinetic of choline and kinetic of transformation of choline to betaine (compared with choline chloride and choline bitartrate): better values
- AUC (0-6 h) of betaine concentrations (plasma, healthy adult males, single oral beverage supplying 550 mg choline, after overnight fasting, ranking among the three supplements): highest
